From BindingDB's records for PubMed 7932177 (Memorial Sloan-Kettering Cancer Center, 1994)

Sequences of proteins named here, by UniProt entry; tags and fusion partners are left off. A change or cut given only in a name is not applied to a line headed by its entry.
UniProt P35372, whole entry: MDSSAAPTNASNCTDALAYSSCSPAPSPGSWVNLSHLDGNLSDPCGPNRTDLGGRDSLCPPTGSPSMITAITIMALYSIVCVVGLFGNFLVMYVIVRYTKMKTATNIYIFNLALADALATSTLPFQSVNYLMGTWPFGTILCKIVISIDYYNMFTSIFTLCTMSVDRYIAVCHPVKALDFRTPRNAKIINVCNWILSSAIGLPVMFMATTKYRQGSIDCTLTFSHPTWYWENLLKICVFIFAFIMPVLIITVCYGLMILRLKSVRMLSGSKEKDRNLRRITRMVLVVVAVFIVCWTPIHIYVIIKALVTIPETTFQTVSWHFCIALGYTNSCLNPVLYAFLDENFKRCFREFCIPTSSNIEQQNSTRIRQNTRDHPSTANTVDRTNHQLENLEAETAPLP
UniProt P41145: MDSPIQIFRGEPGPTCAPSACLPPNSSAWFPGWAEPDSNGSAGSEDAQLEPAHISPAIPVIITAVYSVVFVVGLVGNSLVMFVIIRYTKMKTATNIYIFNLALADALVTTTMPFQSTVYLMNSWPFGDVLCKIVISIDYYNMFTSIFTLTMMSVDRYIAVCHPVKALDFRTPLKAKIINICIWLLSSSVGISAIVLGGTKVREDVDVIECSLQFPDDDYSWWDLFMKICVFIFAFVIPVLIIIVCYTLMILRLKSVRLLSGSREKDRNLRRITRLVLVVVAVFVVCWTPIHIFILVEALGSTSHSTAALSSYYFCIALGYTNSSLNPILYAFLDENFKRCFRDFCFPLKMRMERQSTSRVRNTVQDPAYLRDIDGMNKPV
UniProt P41143, whole entry: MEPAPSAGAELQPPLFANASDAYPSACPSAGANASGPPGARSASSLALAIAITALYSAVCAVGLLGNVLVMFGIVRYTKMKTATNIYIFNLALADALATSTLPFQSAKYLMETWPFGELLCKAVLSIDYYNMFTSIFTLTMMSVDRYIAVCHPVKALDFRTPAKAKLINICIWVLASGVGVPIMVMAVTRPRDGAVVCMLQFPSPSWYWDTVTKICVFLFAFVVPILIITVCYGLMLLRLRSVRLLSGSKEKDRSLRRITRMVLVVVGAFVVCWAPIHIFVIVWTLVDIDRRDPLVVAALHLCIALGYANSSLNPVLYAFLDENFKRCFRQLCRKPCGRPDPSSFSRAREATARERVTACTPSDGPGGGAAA

How the values were obtained:
Mu-type opioid receptor = Mu-type opioid receptor (Homo sapiens, UniProt P35372)
[1] = target: Kappa-type opioid receptor (Homo sapiens, UniProt P41145)
[2] = target: Delta-type opioid receptor (Homo sapiens, UniProt P41143)

Structure (SMILES) | Ki (Mu-type opioid receptor) [nM] | Ki [1] [nM] | Ki [2] [nM]
Oc1ccc2c3c1OC1c4[nH]c5ccccc5c4CC4(O)[C@H](C2)N(CC2CC2)CCC314 (stereo partly drawn) [NALTRINDOLE] | 22.9 | 25.6 | –
CC(C)[C@H](NC(=O)[C@H](CCC(=O)O)NC(=O)[C@H](Cc1ccccc1)NC(=O)[C@@H](C)NC(=O)[C@@H](N)Cc1ccc(O)cc1)C(=O)N[C@H](C(=O)NCC(N)=O)C(C)C [Tyr-D-Ala-Phe-Glu-Val-Val-GlyNH2] | 230 | – | –
CC(C)[C@H](NC(=O)[C@H](CC(=O)O)NC(=O)[C@H](Cc1ccccc1)NC(=O)[C@@H](C)NC(=O)[C@@H](N)Cc1ccc(O)cc1)C(=O)N[C@H](C(=O)NCC(N)=O)C(C)C [Deltorphin I] | 57.5 | 414 | 0.49
CC(C)C[C@@H](NC(=O)[C@H](Cc1ccccc1)NC(=O)CNC(=O)[C@@H](C)NC(=O)[C@@H](N)Cc1ccc(O)cc1)C(=O)O [[D-Ala2-D-Leu5]enkephalin] | 2.85 | 10.2 | –
